# Experiments:
# Amino acid sequences for entries named in this document (tags omitted). A change or cut given only in a name is not applied to a line headed by its entry. Residues count along the entry.
# UniProt P51956: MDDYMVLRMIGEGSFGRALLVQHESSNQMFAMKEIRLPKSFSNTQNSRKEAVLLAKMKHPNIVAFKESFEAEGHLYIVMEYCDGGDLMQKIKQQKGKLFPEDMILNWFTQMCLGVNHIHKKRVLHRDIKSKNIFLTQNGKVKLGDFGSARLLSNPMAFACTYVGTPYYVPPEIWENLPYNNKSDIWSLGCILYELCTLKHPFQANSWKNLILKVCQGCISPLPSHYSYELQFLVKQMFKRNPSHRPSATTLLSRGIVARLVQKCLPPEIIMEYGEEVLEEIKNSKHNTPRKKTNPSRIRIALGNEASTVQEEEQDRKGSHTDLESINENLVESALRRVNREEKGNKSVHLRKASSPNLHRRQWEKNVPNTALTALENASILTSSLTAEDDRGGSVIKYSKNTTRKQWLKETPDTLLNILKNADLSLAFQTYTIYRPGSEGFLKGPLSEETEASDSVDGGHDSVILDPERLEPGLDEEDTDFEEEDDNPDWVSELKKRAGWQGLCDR
# UniProt Q02763, 23-1124: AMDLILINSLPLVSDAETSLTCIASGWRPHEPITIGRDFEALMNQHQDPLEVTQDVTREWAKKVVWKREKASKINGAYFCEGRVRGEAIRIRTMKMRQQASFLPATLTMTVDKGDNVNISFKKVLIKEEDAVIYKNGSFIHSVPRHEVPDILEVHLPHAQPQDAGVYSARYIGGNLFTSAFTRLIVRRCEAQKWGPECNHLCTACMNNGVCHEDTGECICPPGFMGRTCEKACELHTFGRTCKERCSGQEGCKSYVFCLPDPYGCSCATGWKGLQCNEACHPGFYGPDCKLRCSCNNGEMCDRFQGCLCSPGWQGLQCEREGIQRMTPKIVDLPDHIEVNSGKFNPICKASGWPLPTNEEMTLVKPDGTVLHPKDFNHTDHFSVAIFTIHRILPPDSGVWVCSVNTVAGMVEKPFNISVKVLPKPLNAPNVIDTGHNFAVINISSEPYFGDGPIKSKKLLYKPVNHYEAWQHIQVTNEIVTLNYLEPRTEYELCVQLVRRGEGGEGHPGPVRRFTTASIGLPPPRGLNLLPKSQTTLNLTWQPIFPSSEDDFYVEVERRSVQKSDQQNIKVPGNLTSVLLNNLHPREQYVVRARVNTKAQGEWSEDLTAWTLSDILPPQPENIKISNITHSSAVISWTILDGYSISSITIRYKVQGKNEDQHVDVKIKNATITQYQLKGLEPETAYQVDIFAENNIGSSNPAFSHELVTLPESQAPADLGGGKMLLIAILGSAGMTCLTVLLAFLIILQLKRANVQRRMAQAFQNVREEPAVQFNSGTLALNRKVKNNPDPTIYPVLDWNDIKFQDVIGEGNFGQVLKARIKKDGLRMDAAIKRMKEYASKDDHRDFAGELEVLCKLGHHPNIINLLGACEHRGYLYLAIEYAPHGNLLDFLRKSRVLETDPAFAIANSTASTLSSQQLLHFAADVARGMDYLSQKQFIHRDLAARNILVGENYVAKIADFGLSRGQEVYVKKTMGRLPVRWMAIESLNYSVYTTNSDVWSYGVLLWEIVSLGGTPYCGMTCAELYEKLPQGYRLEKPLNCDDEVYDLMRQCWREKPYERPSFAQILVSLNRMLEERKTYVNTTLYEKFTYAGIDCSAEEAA
# UniProt P54764, 20-986: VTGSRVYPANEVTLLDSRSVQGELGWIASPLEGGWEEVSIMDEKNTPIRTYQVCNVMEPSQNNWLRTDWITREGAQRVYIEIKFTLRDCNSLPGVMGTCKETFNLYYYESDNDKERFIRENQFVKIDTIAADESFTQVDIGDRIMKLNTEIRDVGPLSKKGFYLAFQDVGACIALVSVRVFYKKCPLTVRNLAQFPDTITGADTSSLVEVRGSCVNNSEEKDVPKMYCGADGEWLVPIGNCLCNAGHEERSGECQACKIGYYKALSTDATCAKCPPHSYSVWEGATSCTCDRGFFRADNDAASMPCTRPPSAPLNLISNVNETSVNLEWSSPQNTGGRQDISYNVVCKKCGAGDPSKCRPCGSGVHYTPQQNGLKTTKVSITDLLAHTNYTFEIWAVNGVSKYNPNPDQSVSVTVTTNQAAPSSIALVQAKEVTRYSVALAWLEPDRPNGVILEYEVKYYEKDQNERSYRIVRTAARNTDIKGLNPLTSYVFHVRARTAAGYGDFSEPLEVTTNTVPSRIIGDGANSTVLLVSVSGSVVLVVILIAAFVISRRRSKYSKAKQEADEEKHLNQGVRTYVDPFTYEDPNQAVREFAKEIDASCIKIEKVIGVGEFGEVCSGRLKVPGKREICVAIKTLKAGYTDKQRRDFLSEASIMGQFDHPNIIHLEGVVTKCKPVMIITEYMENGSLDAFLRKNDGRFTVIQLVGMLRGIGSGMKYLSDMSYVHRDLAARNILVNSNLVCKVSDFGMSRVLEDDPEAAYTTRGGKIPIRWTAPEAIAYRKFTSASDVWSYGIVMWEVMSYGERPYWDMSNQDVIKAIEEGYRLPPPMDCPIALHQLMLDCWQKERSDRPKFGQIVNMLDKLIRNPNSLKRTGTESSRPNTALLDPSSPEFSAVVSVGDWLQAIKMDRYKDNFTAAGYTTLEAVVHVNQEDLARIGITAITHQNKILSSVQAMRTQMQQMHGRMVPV
# UniProt P16591: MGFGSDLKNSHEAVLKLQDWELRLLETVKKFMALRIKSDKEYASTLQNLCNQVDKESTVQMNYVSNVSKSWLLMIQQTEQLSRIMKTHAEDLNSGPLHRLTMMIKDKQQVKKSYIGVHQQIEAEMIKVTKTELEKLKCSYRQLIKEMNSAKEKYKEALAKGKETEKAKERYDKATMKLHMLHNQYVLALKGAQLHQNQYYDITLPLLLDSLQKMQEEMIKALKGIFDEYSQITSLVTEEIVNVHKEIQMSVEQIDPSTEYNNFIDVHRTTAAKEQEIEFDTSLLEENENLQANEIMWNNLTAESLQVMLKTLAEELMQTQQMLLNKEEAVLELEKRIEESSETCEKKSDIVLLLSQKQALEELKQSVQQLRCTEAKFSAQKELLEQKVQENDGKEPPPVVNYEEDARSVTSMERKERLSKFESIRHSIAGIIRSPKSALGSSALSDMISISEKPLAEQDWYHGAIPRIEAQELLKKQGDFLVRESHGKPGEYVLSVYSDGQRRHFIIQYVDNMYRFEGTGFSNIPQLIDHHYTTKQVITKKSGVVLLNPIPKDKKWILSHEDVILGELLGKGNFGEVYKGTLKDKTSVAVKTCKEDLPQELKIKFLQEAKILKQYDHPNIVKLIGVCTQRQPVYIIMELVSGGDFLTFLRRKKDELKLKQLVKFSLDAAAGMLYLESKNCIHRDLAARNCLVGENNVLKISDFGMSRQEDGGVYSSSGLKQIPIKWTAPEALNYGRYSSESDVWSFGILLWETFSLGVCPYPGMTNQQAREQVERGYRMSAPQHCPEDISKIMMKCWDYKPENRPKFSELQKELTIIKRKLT
# UniProt P33981: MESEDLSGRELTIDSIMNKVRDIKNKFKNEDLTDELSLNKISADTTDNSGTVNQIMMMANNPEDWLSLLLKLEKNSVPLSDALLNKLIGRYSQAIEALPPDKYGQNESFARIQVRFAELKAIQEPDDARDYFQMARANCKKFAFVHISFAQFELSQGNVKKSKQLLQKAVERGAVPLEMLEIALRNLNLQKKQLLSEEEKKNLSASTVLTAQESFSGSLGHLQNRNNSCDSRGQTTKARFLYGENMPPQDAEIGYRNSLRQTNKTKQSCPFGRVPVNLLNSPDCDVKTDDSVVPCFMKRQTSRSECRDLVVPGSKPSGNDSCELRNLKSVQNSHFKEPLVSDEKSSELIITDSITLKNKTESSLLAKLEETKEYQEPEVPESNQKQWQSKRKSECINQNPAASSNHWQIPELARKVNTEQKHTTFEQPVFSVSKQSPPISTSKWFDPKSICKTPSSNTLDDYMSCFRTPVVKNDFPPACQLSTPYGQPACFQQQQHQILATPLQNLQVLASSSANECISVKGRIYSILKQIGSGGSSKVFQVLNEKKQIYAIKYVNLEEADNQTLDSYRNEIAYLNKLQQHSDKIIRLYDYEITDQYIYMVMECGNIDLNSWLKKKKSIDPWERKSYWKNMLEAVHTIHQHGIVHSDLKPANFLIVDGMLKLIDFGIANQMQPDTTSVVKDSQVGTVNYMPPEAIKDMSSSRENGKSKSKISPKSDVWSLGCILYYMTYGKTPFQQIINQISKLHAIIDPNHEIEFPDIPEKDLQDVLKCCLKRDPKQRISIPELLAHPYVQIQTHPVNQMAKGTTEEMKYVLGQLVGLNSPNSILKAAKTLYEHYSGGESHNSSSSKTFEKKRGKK
# UniProt Q9HBH9: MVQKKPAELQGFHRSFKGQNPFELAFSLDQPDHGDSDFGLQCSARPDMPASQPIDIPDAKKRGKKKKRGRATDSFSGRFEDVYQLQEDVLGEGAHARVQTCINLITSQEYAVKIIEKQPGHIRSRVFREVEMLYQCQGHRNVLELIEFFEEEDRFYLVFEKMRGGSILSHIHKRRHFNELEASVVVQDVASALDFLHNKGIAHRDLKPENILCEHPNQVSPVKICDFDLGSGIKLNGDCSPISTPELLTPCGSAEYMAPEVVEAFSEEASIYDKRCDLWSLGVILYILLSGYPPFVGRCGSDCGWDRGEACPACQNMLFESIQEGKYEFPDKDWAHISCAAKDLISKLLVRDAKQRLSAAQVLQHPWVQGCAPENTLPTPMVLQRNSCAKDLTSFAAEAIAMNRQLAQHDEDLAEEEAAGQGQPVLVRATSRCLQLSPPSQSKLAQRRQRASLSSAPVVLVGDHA
# UniProt O14965: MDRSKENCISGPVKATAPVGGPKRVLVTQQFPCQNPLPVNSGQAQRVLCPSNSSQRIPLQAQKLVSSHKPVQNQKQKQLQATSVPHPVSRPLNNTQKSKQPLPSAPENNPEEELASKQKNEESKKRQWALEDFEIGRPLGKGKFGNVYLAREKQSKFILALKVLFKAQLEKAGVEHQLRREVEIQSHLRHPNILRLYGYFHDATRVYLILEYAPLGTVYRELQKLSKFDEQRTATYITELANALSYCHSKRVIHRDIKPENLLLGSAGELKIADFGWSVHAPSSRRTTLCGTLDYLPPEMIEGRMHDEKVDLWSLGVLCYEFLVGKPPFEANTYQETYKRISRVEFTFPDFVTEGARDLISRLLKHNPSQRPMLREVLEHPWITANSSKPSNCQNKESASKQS
# UniProt Q15349, 59-318 limits assumed: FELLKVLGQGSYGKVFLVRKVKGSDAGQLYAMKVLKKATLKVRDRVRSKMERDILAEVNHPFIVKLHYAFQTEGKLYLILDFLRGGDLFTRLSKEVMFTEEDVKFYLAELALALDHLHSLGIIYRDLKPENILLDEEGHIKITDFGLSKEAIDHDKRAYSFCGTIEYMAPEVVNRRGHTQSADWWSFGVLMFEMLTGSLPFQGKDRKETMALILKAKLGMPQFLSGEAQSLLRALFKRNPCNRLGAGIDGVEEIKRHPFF
# UniProt Q07002: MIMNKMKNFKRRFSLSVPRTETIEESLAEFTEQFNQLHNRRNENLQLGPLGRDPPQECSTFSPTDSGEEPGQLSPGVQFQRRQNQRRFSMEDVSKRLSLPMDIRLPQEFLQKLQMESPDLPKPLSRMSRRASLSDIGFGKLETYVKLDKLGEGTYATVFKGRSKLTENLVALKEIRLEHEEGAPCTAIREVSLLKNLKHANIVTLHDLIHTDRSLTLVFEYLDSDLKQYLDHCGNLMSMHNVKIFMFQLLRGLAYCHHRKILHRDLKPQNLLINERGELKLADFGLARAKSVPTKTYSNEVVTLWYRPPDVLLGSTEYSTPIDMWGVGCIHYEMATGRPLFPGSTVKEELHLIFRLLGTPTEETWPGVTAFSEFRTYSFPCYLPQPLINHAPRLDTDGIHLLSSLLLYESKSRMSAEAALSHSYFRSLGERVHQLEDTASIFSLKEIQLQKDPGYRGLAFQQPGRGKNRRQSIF
# UniProt P25098: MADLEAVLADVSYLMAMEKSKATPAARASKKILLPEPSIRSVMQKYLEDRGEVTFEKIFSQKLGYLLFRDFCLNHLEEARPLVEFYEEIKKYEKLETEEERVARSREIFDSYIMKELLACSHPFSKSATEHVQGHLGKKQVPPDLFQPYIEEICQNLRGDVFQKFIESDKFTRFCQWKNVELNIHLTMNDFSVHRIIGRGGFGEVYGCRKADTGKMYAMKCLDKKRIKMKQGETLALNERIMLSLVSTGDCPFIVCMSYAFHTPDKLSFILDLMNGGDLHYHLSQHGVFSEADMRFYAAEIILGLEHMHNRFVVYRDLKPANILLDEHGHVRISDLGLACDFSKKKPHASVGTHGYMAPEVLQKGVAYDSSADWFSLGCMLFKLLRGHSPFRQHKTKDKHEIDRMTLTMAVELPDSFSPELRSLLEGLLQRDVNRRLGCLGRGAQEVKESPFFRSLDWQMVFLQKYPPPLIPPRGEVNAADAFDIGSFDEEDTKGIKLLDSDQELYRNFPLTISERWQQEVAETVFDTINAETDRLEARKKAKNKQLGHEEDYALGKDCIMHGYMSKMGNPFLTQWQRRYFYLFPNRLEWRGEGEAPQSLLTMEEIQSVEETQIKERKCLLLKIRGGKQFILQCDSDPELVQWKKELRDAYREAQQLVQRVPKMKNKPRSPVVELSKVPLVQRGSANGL
# Assay in all cases: biochemical
# Conditions in all cases: read-out: Percent Control
# MAP3K1 = MAP3K1 (Homo sapiens, UniProt Q13233)
# BLK = BLK (Homo sapiens, UniProt P51451)
# NEK3 = NEK3 (Homo sapiens, UniProt P51956)
# GSK3A = GSK3A (Homo sapiens, UniProt P49840)
# CSNK1G3 = CSNK1G3 (Homo sapiens, UniProt Q9Y6M4)
# PRKX = PRKX (Homo sapiens, UniProt P51817)
# PIK4CB = PIK4CB (Homo sapiens, UniProt Q9UBF8)
# TIE2 = TIE2 (Homo sapiens, UniProt Q02763)
# EPHA4 = EPHA4 (Homo sapiens, UniProt P54764)
# ERK8 = ERK8 (Homo sapiens, UniProt Q8TD08)
# ERK2 = ERK2 (Homo sapiens, UniProt P28482)
# GRK4 = GRK4 (Homo sapiens, UniProt P32298)
# PIK3CA(E545A) = PIK3CA(E545A) (Homo sapiens, UniProt P42336, E545A)
# BMPR1A = BMPR1A (Homo sapiens, UniProt P36894)
# STK16 = STK16 (Homo sapiens, UniProt O75716)
# HUNK = HUNK (Homo sapiens, UniProt P57058)
# CDKL2 = CDKL2 (Homo sapiens, UniProt Q92772)
# LZK = LZK (Homo sapiens, UniProt O43283)
# FER = FER (Homo sapiens, UniProt P16591)
# TTK = TTK (Homo sapiens, UniProt P33981)
# DMPK = DMPK (Homo sapiens, UniProt Q09013)
# MKNK2 = MKNK2 (Homo sapiens, UniProt Q9HBH9)
# AURKA = AURKA (Homo sapiens, UniProt O14965)
# CSNK2A2 = CSNK2A2 (Homo sapiens, UniProt P19784)
# RAF1 = RAF1 (Homo sapiens, UniProt P04049)
# PDPK1 = PDPK1 (Homo sapiens, UniProt O15530)
# [1] = molecular target: RSK4(Kin.Dom.2-C-terminal) (Homo sapiens, UniProt Q9UK32)
# GSK3B = GSK3B (Homo sapiens, UniProt P49841)
# MARK1 = MARK1 (Homo sapiens, UniProt Q9P0L2)
# DCAMKL2 = DCAMKL2 (Homo sapiens, UniProt Q8N568)
# EGFR(S752-I759del) = EGFR(S752-I759del) (Homo sapiens, UniProt P00533, DEL752-759)
# [2] = molecular target: RSK3(Kin.Dom.1-N-terminal) (Homo sapiens, UniProt Q15349)
# FGFR3(G697C) = FGFR3(G697C) (Homo sapiens, UniProt P22607, G697C)
# WNK3 = WNK3 (Homo sapiens, UniProt Q9BYP7)
# DAPK3 = DAPK3 (Homo sapiens, UniProt O43293)
# SNRK = SNRK (Homo sapiens, UniProt Q9NRH2)
# ADCK3 = ADCK3 (Homo sapiens, UniProt Q8NI60)
# PCTK3 = PCTK3 (Homo sapiens, UniProt Q07002)
# HCK = HCK (Homo sapiens, UniProt P08631)
# HIPK1 = HIPK1 (Homo sapiens, UniProt Q86Z02)
# PIK3CA(E545K) = PIK3CA(E545K) (Homo sapiens, UniProt P42336, E545K)
# MLCK = MLCK (Homo sapiens, UniProt Q32MK0)
# GRK2 = GRK2 (Homo sapiens, UniProt P25098)
smiles,measurement,setting,value
"COc1cc2c(Nc3ccc(Cl)c(OC)n3)c(C#N)cnc2cc1OCCON1CCN(C)CC1 [16a, 4-((5-Chloro-6-methoxypyridin-2-yl)amino)-6-methoxy-7-(2-((4-methylpiperazin-1-yl)oxy)ethoxy)quinoline-3-carbonitrile]",remaining activity at 1 µM,MAP3K1,84%
same,remaining activity at 1 µM,BLK,0.2%
same,remaining activity at 1 µM,NEK3,81%
same,remaining activity at 1 µM,GSK3A,100%
same,remaining activity at 1 µM,CSNK1G3,97%
same,remaining activity at 1 µM,PRKX,100%
same,remaining activity at 1 µM,PIK4CB,100%
same,remaining activity at 1 µM,TIE2,70%
same,remaining activity at 1 µM,EPHA4,7%
same,remaining activity at 1 µM,ERK8,99%
same,remaining activity at 1 µM,ERK2,100%
same,remaining activity at 1 µM,GRK4,18%
same,remaining activity at 1 µM,PIK3CA(E545A),79%
same,remaining activity at 1 µM,BMPR1A,76%
same,remaining activity at 1 µM,STK16,91%
same,remaining activity at 1 µM,HUNK,37%
same,remaining activity at 1 µM,CDKL2,39%
same,remaining activity at 1 µM,LZK,92%
same,remaining activity at 1 µM,FER,13%
same,remaining activity at 1 µM,TTK,96%
same,remaining activity at 1 µM,DMPK,3.3%
same,remaining activity at 1 µM,MKNK2,100%
same,remaining activity at 1 µM,AURKA,100%
same,remaining activity at 1 µM,CSNK2A2,76%
same,remaining activity at 1 µM,RAF1,100%
same,remaining activity at 1 µM,PDPK1,100%
same,remaining activity at 1 µM,[1],87%
same,remaining activity at 1 µM,GSK3B,100%
same,remaining activity at 1 µM,MARK1,43%
same,remaining activity at 1 µM,DCAMKL2,85%
same,remaining activity at 1 µM,EGFR(S752-I759del),1.9%
same,remaining activity at 1 µM,[2],75%
same,remaining activity at 1 µM,FGFR3(G697C),91%
same,remaining activity at 1 µM,WNK3,7.5%
same,remaining activity at 1 µM,DAPK3,83%
same,remaining activity at 1 µM,SNRK,69%
same,remaining activity at 1 µM,ADCK3,100%
same,remaining activity at 1 µM,PCTK3,99%
same,remaining activity at 1 µM,HCK,0.6%
same,remaining activity at 1 µM,HIPK1,16%
same,remaining activity at 1 µM,PIK3CA(E545K),89%
same,remaining activity at 1 µM,MLCK,61%
same,remaining activity at 1 µM,GRK2,97%

# — paper PMC11472320, “Computationally Driven Discovery of a BCR-ABL1 Kinase Inhibitor with Activity in Multidrug-Resistant Chronic Myeloid Leukemia” (Journal of Medicinal Chemistry, 2024)
